Where a name gives a salt, the structure may show the parent alone.

A short description of this series: Qualitative solubility of salt forms in solvent systems (appearance at attempted concentration). Format: physicochemical.

For `C=C(C)[C@@H]1CC[C@]2(C(=O)O)CC[C@]3(C)[C@H](CC[C@@H]4[C@@]5(C)CC[C@H](OC(=O)CC(C)(C)C(=O)O)C(C)(C)[C@@H]5CC[C@]43C)[C@@H]12` [DSB-(NmG)2, di-(N-methyl-D-glucamine) salt of 3-O-(3′,3′-dimethylsuccinyl) betulinic acid], the Appearance result runs as follows: (Captex 200 81%, Vitamin E TPGS 15%, DMA 4%, attempted 25.5 mg/mL, 40-45° C.) “Solution cloudy, some”; (Captex 200 82%, Vitamin E TPGS 16%, DMA 2%, attempted 24.5 mg/g, 40-45° C.) “Solution cloudy, some”; (Captex 200 100%, attempted 24.7 mg/g) “Solution cloudy”; (Hydroxypropyl-β-cyclodextrin 10% (in water), attempted 50.0 mg/mL) “clear”; (Hydroxypropyl-β-cyclodextrin 10% (in water), attempted 50.0 mg/mL, listed as DSB—(NmG)2) “Solution clear, but foam”; (Water 56%, PEG 400 40%, Propylene Glycol 4%, attempted 50.9 mg/mL) “apparently undissolved”. Also, the Appearance result is, setting by setting: (Water 67%, PEG 400 29%, Ethanol 4%, attempted 50.8 mg/mL) “Solution clear, initially”; (Water 75%, PEG 400 11%, Vitamin E TPGS 10%, Ethanol 4%, attempted 50.8 mg/mL, 40-45° C.) “Solution clear, very”; (Water 75%, PEG 400 12%, Vitamin E TPGS 10%, Ethanol 3%, attempted 50.1 mg/mL, 40-45° C.) “Solution clear, very”; (Water 75%, PEG 400 13%, Vitamin E TPGS 10%, Ethanol 2%, attempted 50.9 mg/mL, 40-45° C.) “Undissolved drug, very”; (Water 78%, PEG 400 18%, Ethanol 4%, attempted 51.2 mg/mL) “Solution clear, initially”; (Water 83%, PEG 400 7%, Propylene Glycol 6%, Ethanol 4%, attempted 51.7 mg/mL) “Solution clear, initially”. In addition, the Appearance entry is “dissolved, but solution” (Water 84%, PEG 400 10%, Ethanol 4%, Vitamin E TPGS 2%, attempted 40.4 mg/g, 40-45° C.); “Solution cloudy, some” (Water 84%, PEG 400 11%, Ethanol 4%, Simethicone Emulsion 1%, attempted 50.5 mg/mL); “Solution clear” (Water 86%, PEG 400 10%, Ethanol 4%, attempted 67.3 mg/mL); “Solution clear, initially” (Water 89%, PEG 400 7%, Ethanol 4%, attempted 50.1 mg/mL); “Solutions clears with” (Water 96%, DMA 4%, attempted 52.2 mg/mL); “Solution cloudy” (Water 96%, DMA 4%, attempted 71.2 mg/mL). Besides, the Appearance entry is on record as “Solution clear, initially” (Water 96%, Ethanol 4%, attempted 50.1 mg/mL) and “Solution cloudy” (Water 100%, attempted 2.4 mg/mL).
